Literature values as cited in patent US20240335532A1, “NANOPARTICULATE FORMULATION” (NewImmune II, LLC, priority 2021, published 2024).

Tested on: ovalbumin
Conditions: topical, subcutaneous ovalbumin immunisation

CC(C)Cn1cnc2c(N)nc3ccccc3c21 [imiquimod, 1-(2-methylpropyl)imidazo[4,5-c]quinolin-4-amine]
antibody and cellular responses to immunisation: enhances both antibody responses and cellular responses
